This assay has as its target T1, Flag-Syno dTM fusion protein (human, UniProt Q86TM6, in part, 35S-labelled by in vitro translation).
T1 construct: Made by in vitro translation (TNT system); also called [35S]pcDNA3-FlagSyno dTM; pcDNA3-Flag-Syno dTM; not shown: Flag tag
In words: GST pull-down with 35S-labelled in vitro translated protein, SDS-PAGE and image analyzer. The procedure: pcDNA3-Flag-Syno dTM was prepared with synoviolin from 706 bp to 1854 bp and a TNT-coupled Translation System (Promega) inserted, and subjected to in vitro translation to prepare (i) a Flag-Syno dTM fusion protein, (ii) a Herp GST fusion protein, and (iii) a GST fusion protein with fragmented Herp (FIG. 2).
These proteins and (iv) GST protein as a control were added to a binding buffer comprising 20 mM Hepes (pH 7.9), 100 mM NaCl, 1 mM EDTA, 0.05% Tween, 5% Glycerol, 1 mM DTT, 0.2 mM NaVO₄, 5 mM NaF and 1 mM PMSF, and reacted for 16 hours at 4° C. The reaction product was subjected to SDS-PAGE, and radioactivity was detected with an image analyzer (BAS2000, Fujix).

Chains of the proteins cited; added tags and fusions are not shown. Residues count along the entry.
UniProt Q86TM6, 236-617 E545G: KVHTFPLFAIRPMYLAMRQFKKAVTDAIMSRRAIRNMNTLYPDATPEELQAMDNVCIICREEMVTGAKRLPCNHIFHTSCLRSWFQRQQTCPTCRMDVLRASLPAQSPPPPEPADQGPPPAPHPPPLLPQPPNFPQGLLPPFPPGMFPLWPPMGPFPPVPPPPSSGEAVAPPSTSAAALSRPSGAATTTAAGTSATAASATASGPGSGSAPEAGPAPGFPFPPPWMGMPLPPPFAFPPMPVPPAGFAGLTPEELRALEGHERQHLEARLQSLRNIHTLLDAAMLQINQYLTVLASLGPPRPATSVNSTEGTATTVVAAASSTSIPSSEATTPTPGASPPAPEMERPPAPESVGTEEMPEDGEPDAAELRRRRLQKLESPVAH

Here are results for one molecule from patent US20070275887A1 (published 2007).

B1: GST protein (control) (other, UniProt P08515 1-218, looked up)
chain: MSPILGYWKIKGLVQPTRLLLEYLEEKYEEHLYERDEGDKWRNKKFELGLEFPNLPYYIDGDVKLTQSMAIIRYIADKHNMLGGCPKERAEISMLEGAVLDIRYGVSRIAYSKDFETLKVDFLSKLPEMLKMFEDRLCHKTYLNGDHVTHPDFMLYDALDVVLYMDPMCLDAFPKLVCFKKRIEAIPQIDKYLKSSKYIAWPLQGWQATFGGGDHPPK
notes: also called control GST
Turning to B1, the binding result is recorded as “no binding”.
